Source: patent publication US10414811B2, “Protease-resistant lipidated GLP-1 analogs” (MEDIMMUNE LIMITED, priority 2015, dated 2019)

Chains of the proteins cited; added tags and fusions are not shown. Lines headed by an entry give the natural chain unless they say otherwise; changes in a name come on top.
UniProt P08473: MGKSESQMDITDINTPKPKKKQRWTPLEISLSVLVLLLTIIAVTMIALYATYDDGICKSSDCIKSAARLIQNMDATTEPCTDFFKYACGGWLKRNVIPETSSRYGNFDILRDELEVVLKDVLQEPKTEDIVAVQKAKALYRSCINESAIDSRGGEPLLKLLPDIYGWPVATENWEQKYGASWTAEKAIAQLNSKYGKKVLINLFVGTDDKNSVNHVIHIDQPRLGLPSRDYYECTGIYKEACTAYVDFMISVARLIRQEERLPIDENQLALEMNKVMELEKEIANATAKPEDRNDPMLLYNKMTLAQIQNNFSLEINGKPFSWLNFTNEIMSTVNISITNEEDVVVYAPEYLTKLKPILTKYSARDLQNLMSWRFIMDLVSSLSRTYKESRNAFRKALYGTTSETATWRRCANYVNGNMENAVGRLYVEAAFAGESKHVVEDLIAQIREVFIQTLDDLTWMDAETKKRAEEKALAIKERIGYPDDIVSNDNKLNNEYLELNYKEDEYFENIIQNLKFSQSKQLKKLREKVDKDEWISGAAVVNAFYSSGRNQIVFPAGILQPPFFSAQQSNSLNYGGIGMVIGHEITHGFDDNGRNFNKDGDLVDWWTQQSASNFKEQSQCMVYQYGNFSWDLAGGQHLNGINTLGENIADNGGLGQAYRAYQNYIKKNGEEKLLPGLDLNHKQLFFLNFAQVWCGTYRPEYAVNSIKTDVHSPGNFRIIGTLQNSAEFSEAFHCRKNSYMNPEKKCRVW

Target: T1, Neprilysin (Homo sapiens, UniProt P08473)
T1 construct: purchased R&D Systems 1182-ZNC-010
Assay: Proteolytic resistance to neprilysin (% remaining peptide, RP-HPLC AUC)
Assay type: in vitro ADME
Details: 37° C., pH 8.3
Excerpt: Ratio enzyme (units):peptide (μmoles)˜1:33. […] Ratio enzyme (units):peptide (μmoles)˜1:2.5.

remaining at 2 h (recombinant neprilysin, t = 2 hr) [%]	Molecule	Percentage remaining peptide (AUC at specified time-point by RP-HPLC) upon incubation with neprilysin, t = 0 (t = 0) [%]
93.8	CCCCCCCCCCCC(=O)N[C@@H](CCC(=O)NCCOCCOCC(=O)NCCOCCOCC(=O)NCCCC[C@H](NC(=O)[C@H](C)NC(=O)[C@@H](NC(=O)[C@H](Cc1ccccc1)NC(=O)[C@H](CCC(=O)O)NC(=O)[C@](C)(CCCCN)NC(=O)[C@H](C)NC(=O)[C@H](C)NC(=O)[C@H](CCC(=O)O)NC(=O)CNC(=O)[C@H](CCC(=O)O)NC(=O)[C@H](CCCCNC(=O)COCCOCCNC(=O)COCCOCCNC(=O)CC[C@H](NC(=O)CCCCCCCCCCC)C(=O)O)NC(=O)[C@H](Cc1ccc(O)cc1)NC(=O)[C@H](CO)NC(=O)[C@](C)(CO)NC(=O)[C@@H](NC(=O)[C@H](CC(=O)O)NC(=O)[C@H](CO)NC(=O)[C@@H](NC(=O)[C@](C)(Cc1ccccc1)NC(=O)[C@H](CO)NC(=O)CNC(=O)[C@H](CCC(=O)O)NC(=O)C(C)(C)NC(=O)[C@@H](N)Cc1c[nH]cn1)[C@@H](C)O)C(C)C)[C@@H](C)CC)C(=O)N[C@H](C(=O)N[C@H](C(=O)N[C@@H](CCC(=O)O)C(=O)NCC(=O)NCC(N)=O)C(C)C)C(C)C)C(=O)O [compound 269]	–
–	H-Aib^2-EGTFTSDVSSYLEGQAAK(ε-(PEG)2-(PEG)2-γE-stearate)EFIAWLVRGRG-acid [Semaglutide, reference compound]	100
